Assay results reported in patent publication US20240180139A1, “SOLVENT FOR INSECT REPELLENT ACTIVE INGREDIENT AND INSECT REPELLENT SYSTEM USING SAME” (Thermacell Repellents, Inc., priority 2021, published 2024).

Experiment: release / vaporization rate through heated wick of dispensing device
Format: physicochemical
Conditions: single glycol solvent by itself, against target release rate
Source text: Once candidate materials are identified, considerations of whether release rates relative to the selected glycols would be sufficient to deliver good spatial mosquito repellency. […] In one embodiment, an approximate 70:30 solvent ratio of two solvents is provided.

hexylene glycol
volatilization of solvent by itself: too fast
